Among the data in patent US20200138840A1, “PHARMACEUTICAL COMPOSITION AND TUMOR IMMUNOACTIVITY PROMOTER” (SENTAN Pharma inc., priority 2017, published 2020) are Liver weight values, retold here.

This data set in a line: Side effects in Example 1: body weight, meals, blood glucose, serological profiles, liver weight. The data set is classed as in vivo, nude mice (BALBc-nu/nu). The note with it: day 21; sorafenib 5 mg/kg/day orally. On the procedure: Six-week-old nude mice (male, BALBc-nu/nu mice) were subcutaneously transplanted with 1×10^7 Huh-7 cells. In order to confirm the survival and growth of the transplanted cells, the measurement of tumor size was carried out using a pair of vernier calipers. At the time point when the tumors in the mice had reached a volume of from 100 to 150 mm^3, the mice were divided into the following six groups.
(b) Low dose 2DG group: 100 mg/kg/day of a 100 mg/mL 2DG solution, prepared by dissolving 2DG in PBS, was administered intraperitoneally every day.
(c) High dose 2DG group: 1,000 mg/kg/day of the 100 mg/mL 2DG solution was administered intraperitoneally every day. […]
In each of the groups, the tumor volume and the body weight of the mice were measured every 3 days from the start of administration. At the time points of 7 days, 14 days and 21 days after the start of administration, the average amount of meals taken per day was calculated from the amount of meals taken in the previous week. On day 14 after the start of administration, blood was collected from the mice in the high dose 2DG group at a predetermined time, and the blood glucose level was measured using Glucocard (trademark) MyDia (manufactured by Arkray, Inc.). […] The serological profiles of the collected blood samples were measured using SPOTCHEM (trademark) EZ SP-4430 system (manufactured by Arkray, Inc.). […]

Structures are written as SMILES.

`CNC(=O)c1cc(Oc2ccc(NC(=O)Nc3ccc(Cl)c(C(F)(F)F)c3)cc2)ccn1` [Sorafenib, sorafenib] showed a Liver weight of 1.19 ± 0.1 g.
